Measured values published in publication PMC11833715, “Identification of a Cannabinoid Receptor 2 Allosteric Site Using Computational Modeling and Pharmacological Analysis” (ACS Pharmacology & Translational Science, 2025).

Protein sequences, listed by entry. Tags and fused reporters are not part of them.
UniProt P34972, whole entry: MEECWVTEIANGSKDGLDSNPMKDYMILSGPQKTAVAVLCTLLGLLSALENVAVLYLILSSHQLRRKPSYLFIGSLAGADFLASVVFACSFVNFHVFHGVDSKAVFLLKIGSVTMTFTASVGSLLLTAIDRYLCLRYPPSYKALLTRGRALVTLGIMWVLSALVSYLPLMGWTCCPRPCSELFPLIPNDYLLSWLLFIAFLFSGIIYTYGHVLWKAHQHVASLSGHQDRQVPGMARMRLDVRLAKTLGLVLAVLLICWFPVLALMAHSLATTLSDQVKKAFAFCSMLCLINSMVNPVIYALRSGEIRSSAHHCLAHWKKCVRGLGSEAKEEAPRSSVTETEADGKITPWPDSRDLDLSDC

Target: T1, WT CB2 (Homo sapiens, UniProt P34972)
T1 construct: expressed in transfected cells; host or cells: HEK293
Experiment: pGlo-Sensor-22F cAMP accumulation assay, WT CB2
Type: cell-based
Settings: pEC50/pIC50 values, agonist dose-response on CB2, vehicle control (no Ec2la)
Source text: Compounds were drawn using ChemDraw.

CCCCCCC(C)(C)c1cc(OC)c([C@@H]2C=C(CO)[C@@H]3C[C@H]2C3(C)C)c(OC)c1 [HU308]
EC50 (Figure S2): 5.3 nM
EC50 (Figure S3): 12.4 nM
